Permeability data for macrocyclic peptides

Source: CycPeptMPDB (Li et al. 2023), which took these values from Kelly et al. 2021, doi:10.1021/jacs.0c06115.

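Lipid, pH, incubation time, direction and concentration are not recorded in the data file. Other peptides of the study may be missing here. Entries at the database's floor value (log10 P of -10) are not listed.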

PAMPA is the parallel artificial membrane permeability assay, which has no cells and reads passive diffusion.
Values are log10 P with P in cm/s, so -5 is more permeable than -7.

{"smiles": "CC(=O)N1CCC[C@@H]1C(=O)N(C)[C@@H](CC(C)C)C(=O)N[C@@H]1C(=O)N(C)[C@H](CC(C)C)C(=O)N[C@H](CC(C)C)C(=O)N[C@H](CC(C)C)C(=O)N[C@@H](C)C(=O)N[C@@H](CC(C)C)C(=O)N2CCC[C@H]2C(=O)O[C@@H]1C", "PAMPA (log10 cm/s)": "-6.50"}
{"smiles": "CC(=O)N1CCC[C@H]1C(=O)N(C)[C@H](CC(C)C)C(=O)N[C@@H]1C(=O)N[C@H](CC(C)C)C(=O)N(C)[C@@H](CC(C)C)C(=O)N(C)[C@H](CC(C)C)C(=O)N[C@H](C)C(=O)N[C@@H](CC(C)C)C(=O)N2CCC[C@H]2C(=O)O[C@@H]1C", "PAMPA (log10 cm/s)": "-5.63"}
{"smiles": "CC(=O)N1CCC[C@H]1C(=O)N[C@@H]1C(=O)N[C@H](CC(C)C)C(=O)N(C)[C@H](CC(C)C)C(=O)N(C)[C@H](CC(C)C)C(=O)N(C)[C@@H](CC(C)C)C(=O)N[C@@H](C)C(=O)N[C@@H](CC(C)C)C(=O)N2CCC[C@@H]2C(=O)O[C@@H]1C", "PAMPA (log10 cm/s)": "-5.41"}
{"smiles": "CC(=O)N1CCC[C@@H]1C(=O)N(C)[C@@H](CC(C)C)C(=O)N[C@@H]1C(=O)N[C@H](CC(C)C)C(=O)N(C)[C@@H](CC(C)C)C(=O)N[C@@H](CC(C)C)C(=O)N(C)[C@@H](C)C(=O)N[C@@H](CC(C)C)C(=O)N2CCC[C@@H]2C(=O)O[C@@H]1C", "PAMPA (log10 cm/s)": "-5.18"}
{"smiles": "CC(=O)N1CCC[C@@H]1C(=O)N(C)[C@H](CC(C)C)C(=O)N[C@@H]1C(=O)N[C@@H](CC(C)C)C(=O)N[C@@H](CC(C)C)C(=O)N(C)[C@@H](CC(C)C)C(=O)N(C)[C@@H](C)C(=O)N[C@@H](CC(C)C)C(=O)N2CCC[C@H]2C(=O)O[C@@H]1C", "PAMPA (log10 cm/s)": "-6.31"}
{"smiles": "CC(=O)N1CCC[C@@H]1C(=O)N(C)[C@@H](CC(C)C)C(=O)N[C@@H]1C(=O)N(C)[C@@H](CC(C)C)C(=O)N[C@H](CC(C)C)C(=O)N(C)[C@H](CC(C)C)C(=O)N(C)[C@@H](C)C(=O)N[C@H](CC(C)C)C(=O)N2CCC[C@H]2C(=O)O[C@@H]1C", "PAMPA (log10 cm/s)": "-5.36"}
{"smiles": "CC(=O)N1CCC[C@H]1C(=O)N(C)[C@H](CC(C)C)C(=O)N[C@@H]1C(=O)N[C@H](CC(C)C)C(=O)N[C@H](CC(C)C)C(=O)N[C@@H](CC(C)C)C(=O)N(C)[C@@H](C)C(=O)N[C@H](CC(C)C)C(=O)N2CCC[C@H]2C(=O)O[C@@H]1C", "PAMPA (log10 cm/s)": "-5.53"}
{"smiles": "CC(=O)N1CCC[C@H]1C(=O)N(C)[C@@H](CC(C)C)C(=O)N[C@@H]1C(=O)N(C)[C@@H](CC(C)C)C(=O)N(C)[C@@H](CC(C)C)C(=O)N(C)[C@H](CC(C)C)C(=O)N(C)[C@@H](C)C(=O)N[C@H](CC(C)C)C(=O)N2CCC[C@@H]2C(=O)O[C@@H]1C", "PAMPA (log10 cm/s)": "-5.51"}
{"smiles": "CC(=O)N1CCC[C@H]1C(=O)N(C)[C@@H](CC(C)C)C(=O)N[C@@H]1C(=O)N(C)[C@@H](CC(C)C)C(=O)N[C@@H](CC(C)C)C(=O)N[C@@H](CC(C)C)C(=O)N(C)[C@@H](C)C(=O)N[C@H](CC(C)C)C(=O)N2CCC[C@@H]2C(=O)O[C@@H]1C", "PAMPA (log10 cm/s)": "-6.37"}
{"smiles": "CC(=O)N1CCC[C@H]1C(=O)N[C@@H]1C(=O)N(C)[C@H](CC(C)C)C(=O)N[C@@H](CC(C)C)C(=O)N[C@H](CC(C)C)C(=O)N(C)[C@H](CC(C)C)C(=O)N(C)[C@H](C)C(=O)N[C@@H](CC(C)C)C(=O)N2CCC[C@@H]2C(=O)O[C@@H]1C", "PAMPA (log10 cm/s)": "-5.97"}
{"smiles": "CC(=O)N1CCC[C@@H]1C(=O)N(C)[C@H](CC(C)C)C(=O)N[C@@H]1C(=O)N[C@H](CC(C)C)C(=O)N(C)[C@H](CC(C)C)C(=O)N(C)[C@H](CC(C)C)C(=O)N[C@H](C)C(=O)N[C@@H](CC(C)C)C(=O)N2CCC[C@H]2C(=O)O[C@@H]1C", "PAMPA (log10 cm/s)": "-5.62"}
{"smiles": "CC(=O)N1CCC[C@H]1C(=O)N[C@@H]1C(=O)N(C)[C@H](CC(C)C)C(=O)N[C@@H](CC(C)C)C(=O)N(C)[C@H](CC(C)C)C(=O)N[C@H](CC(C)C)C(=O)N(C)[C@@H](C)C(=O)N[C@@H](CC(C)C)C(=O)N2CCC[C@@H]2C(=O)O[C@@H]1C", "PAMPA (log10 cm/s)": "-4.80"}
{"smiles": "CC(=O)N1CCC[C@H]1C(=O)N(C)[C@@H](CC(C)C)C(=O)N[C@@H]1C(=O)N[C@H](CC(C)C)C(=O)N(C)[C@H](CC(C)C)C(=O)N[C@@H](CC(C)C)C(=O)N(C)[C@@H](C)C(=O)N[C@@H](CC(C)C)C(=O)N2CCC[C@@H]2C(=O)O[C@@H]1C", "PAMPA (log10 cm/s)": "-5.11"}
{"smiles": "CC(=O)N1CCC[C@@H]1C(=O)N(C)[C@H](CC(C)C)C(=O)N[C@@H]1C(=O)N[C@H](CC(C)C)C(=O)N(C)[C@@H](CC(C)C)C(=O)N(C)[C@H](CC(C)C)C(=O)N[C@@H](C)C(=O)N[C@H](CC(C)C)C(=O)N2CCC[C@H]2C(=O)O[C@@H]1C", "PAMPA (log10 cm/s)": "-5.52"}
{"smiles": "CC(=O)N1CCC[C@H]1C(=O)N(C)[C@@H](CC(C)C)C(=O)N[C@@H]1C(=O)N[C@H](CC(C)C)C(=O)N(C)[C@H](CC(C)C)C(=O)N(C)[C@@H](CC(C)C)C(=O)N(C)[C@H](C)C(=O)N[C@@H](CC(C)C)C(=O)N2CCC[C@H]2C(=O)O[C@@H]1C", "PAMPA (log10 cm/s)": "-5.46"}
{"smiles": "CC(=O)N1CCC[C@@H]1C(=O)N(C)[C@H](CC(C)C)C(=O)N[C@@H]1C(=O)N(C)[C@H](CC(C)C)C(=O)N(C)[C@@H](CC(C)C)C(=O)N[C@@H](CC(C)C)C(=O)N(C)[C@@H](C)C(=O)N[C@H](CC(C)C)C(=O)N2CCC[C@@H]2C(=O)O[C@@H]1C", "PAMPA (log10 cm/s)": "-5.02"}
{"smiles": "CC(=O)N1CCC[C@@H]1C(=O)N(C)[C@@H](CC(C)C)C(=O)N[C@@H]1C(=O)N(C)[C@@H](CC(C)C)C(=O)N[C@H](CC(C)C)C(=O)N(C)[C@@H](CC(C)C)C(=O)N(C)[C@@H](C)C(=O)N[C@@H](CC(C)C)C(=O)N2CCC[C@@H]2C(=O)O[C@@H]1C", "PAMPA (log10 cm/s)": "-5.66"}
{"smiles": "CC(=O)N1CCC[C@@H]1C(=O)N(C)[C@@H](CC(C)C)C(=O)N[C@@H]1C(=O)N[C@H](CC(C)C)C(=O)N[C@@H](CC(C)C)C(=O)N[C@@H](CC(C)C)C(=O)N(C)[C@@H](C)C(=O)N[C@@H](CC(C)C)C(=O)N2CCC[C@@H]2C(=O)O[C@@H]1C", "PAMPA (log10 cm/s)": "-5.93"}
{"smiles": "CC(=O)N1CCC[C@H]1C(=O)N(C)[C@H](CC(C)C)C(=O)N[C@@H]1C(=O)N(C)[C@H](CC(C)C)C(=O)N(C)[C@H](CC(C)C)C(=O)N[C@@H](CC(C)C)C(=O)N(C)[C@@H](C)C(=O)N[C@H](CC(C)C)C(=O)N2CCC[C@@H]2C(=O)O[C@@H]1C", "PAMPA (log10 cm/s)": "-5.15"}
{"smiles": "CC(=O)N1CCC[C@H]1C(=O)N(C)[C@@H](CC(C)C)C(=O)N[C@@H]1C(=O)N(C)[C@H](CC(C)C)C(=O)N(C)[C@@H](CC(C)C)C(=O)N[C@@H](CC(C)C)C(=O)N(C)[C@H](C)C(=O)N[C@@H](CC(C)C)C(=O)N2CCC[C@H]2C(=O)O[C@@H]1C", "PAMPA (log10 cm/s)": "-5.88"}
{"smiles": "CC(=O)N[C@@H]1C(=O)N2CCC[C@H]2C(=O)N(C)[C@H](CC(C)C)C(=O)N(C)[C@H](CC(C)C)C(=O)N(C)[C@@H](CC(C)C)C(=O)N(C)[C@H](CC(C)C)C(=O)N(C)[C@@H](C)C(=O)N[C@@H](CC(C)C)C(=O)N2CCC[C@@H]2C(=O)O[C@@H]1C", "PAMPA (log10 cm/s)": "-5.30"}
{"smiles": "CC(=O)N1CCC[C@@H]1C(=O)N(C)[C@@H](CC(C)C)C(=O)N[C@@H]1C(=O)N[C@H](CC(C)C)C(=O)N[C@H](CC(C)C)C(=O)N[C@H](CC(C)C)C(=O)N[C@H](C)C(=O)N[C@H](CC(C)C)C(=O)N2CCC[C@@H]2C(=O)O[C@@H]1C", "PAMPA (log10 cm/s)": "-7.16"}
{"smiles": "CC(=O)N1CCC[C@H]1C(=O)N(C)[C@@H](CC(C)C)C(=O)N[C@@H]1C(=O)N[C@@H](CC(C)C)C(=O)N[C@@H](CC(C)C)C(=O)N(C)[C@@H](CC(C)C)C(=O)N(C)[C@H](C)C(=O)N[C@H](CC(C)C)C(=O)N2CCC[C@H]2C(=O)O[C@@H]1C", "PAMPA (log10 cm/s)": "-6.29"}

Extract of 4 entries:

compound	PAMPA (log10 cm/s)
CC(=O)N1CCC[C@@H]1C(=O)N(C)[C@@H](CC(C)C)C(=O)N[C@@H]1C(=O)N(C)[C@H](CC(C)C)C(=O)N[C@H](CC(C)C)C(=O)N[C@H](CC(C)C)C(=O)N[C@@H](C)C(=O)N[C@@H](CC(C)C)C(=O)N2CCC[C@H]2C(=O)O[C@@H]1C	-6.50
CC(=O)N1CCC[C@H]1C(=O)N(C)[C@@H](CC(C)C)C(=O)N[C@@H]1C(=O)N[C@H](CC(C)C)C(=O)N(C)[C@H](CC(C)C)C(=O)N(C)[C@@H](CC(C)C)C(=O)N(C)[C@H](C)C(=O)N[C@@H](CC(C)C)C(=O)N2CCC[C@H]2C(=O)O[C@@H]1C	-5.46
CC(=O)N1CCC[C@@H]1C(=O)N(C)[C@H](CC(C)C)C(=O)N[C@@H]1C(=O)N(C)[C@H](CC(C)C)C(=O)N(C)[C@@H](CC(C)C)C(=O)N[C@@H](CC(C)C)C(=O)N(C)[C@@H](C)C(=O)N[C@H](CC(C)C)C(=O)N2CCC[C@@H]2C(=O)O[C@@H]1C	-5.02
CC(=O)N1CCC[C@@H]1C(=O)N(C)[C@@H](CC(C)C)C(=O)N[C@@H]1C(=O)N[C@H](CC(C)C)C(=O)N[C@H](CC(C)C)C(=O)N[C@H](CC(C)C)C(=O)N[C@H](C)C(=O)N[C@H](CC(C)C)C(=O)N2CCC[C@@H]2C(=O)O[C@@H]1C	-7.16